Data taken from patent US4246340A, “Method and reagent for bioluminiscence” (LKB-Producter AB, priority 1979, dated 1981).

Chains of the proteins cited; added tags and fusions are not shown.
UniProt P08659, whole entry: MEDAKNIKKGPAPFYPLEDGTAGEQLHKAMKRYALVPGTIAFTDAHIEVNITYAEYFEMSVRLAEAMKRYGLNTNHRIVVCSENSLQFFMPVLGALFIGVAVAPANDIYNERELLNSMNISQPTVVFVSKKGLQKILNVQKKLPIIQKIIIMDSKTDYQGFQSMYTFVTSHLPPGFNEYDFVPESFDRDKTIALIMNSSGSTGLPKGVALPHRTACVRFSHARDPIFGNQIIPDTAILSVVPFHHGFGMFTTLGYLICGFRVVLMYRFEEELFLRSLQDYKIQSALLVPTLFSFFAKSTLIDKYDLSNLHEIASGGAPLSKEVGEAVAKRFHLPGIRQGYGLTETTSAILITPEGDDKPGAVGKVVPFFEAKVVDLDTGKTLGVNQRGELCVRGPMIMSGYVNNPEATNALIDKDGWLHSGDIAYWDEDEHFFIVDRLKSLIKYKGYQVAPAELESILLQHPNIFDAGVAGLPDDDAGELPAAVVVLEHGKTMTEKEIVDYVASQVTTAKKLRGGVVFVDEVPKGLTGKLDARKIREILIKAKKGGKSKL

Molecular target: luciferase (Photinus pyralis, UniProt P08659)
Experiment: Light intensity versus time after adding ATP to the luciferase/D-luciferin bioluminescence reagent with additives (FIG. 2)
Settings: additive 10 μg/ml; D-luciferin 100 μg/ml, 10^-6 M ATP, pH 7.75

For O=C(O)[C@@H]1CSC(c2nc3ccc(O)cc3s2)=N1 [L-luciferin], the “inhibition of the luciferase reaction (light intensity)” value was “about 70%”.
